Laboratory results from patent US20130115208A1.

The chains behind the UniProt entries cited, without tags or fusion partners. Residues count along the entry.
UniProt P26151, 25-297: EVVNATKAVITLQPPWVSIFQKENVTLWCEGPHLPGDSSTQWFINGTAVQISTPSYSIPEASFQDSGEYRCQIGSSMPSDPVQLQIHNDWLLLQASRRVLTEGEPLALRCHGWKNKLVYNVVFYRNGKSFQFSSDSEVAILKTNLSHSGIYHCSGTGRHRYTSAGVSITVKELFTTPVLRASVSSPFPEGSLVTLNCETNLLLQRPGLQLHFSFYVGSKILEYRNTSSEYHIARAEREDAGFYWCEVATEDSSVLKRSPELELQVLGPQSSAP
UniProt P08637, 17-208 limits assumed: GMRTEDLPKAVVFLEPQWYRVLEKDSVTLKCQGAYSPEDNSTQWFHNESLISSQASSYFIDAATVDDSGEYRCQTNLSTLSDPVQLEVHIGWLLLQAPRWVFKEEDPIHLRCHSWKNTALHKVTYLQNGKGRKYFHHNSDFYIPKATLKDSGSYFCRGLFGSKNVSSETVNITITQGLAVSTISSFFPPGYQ
UniProt P12314, 16-288 limits assumed: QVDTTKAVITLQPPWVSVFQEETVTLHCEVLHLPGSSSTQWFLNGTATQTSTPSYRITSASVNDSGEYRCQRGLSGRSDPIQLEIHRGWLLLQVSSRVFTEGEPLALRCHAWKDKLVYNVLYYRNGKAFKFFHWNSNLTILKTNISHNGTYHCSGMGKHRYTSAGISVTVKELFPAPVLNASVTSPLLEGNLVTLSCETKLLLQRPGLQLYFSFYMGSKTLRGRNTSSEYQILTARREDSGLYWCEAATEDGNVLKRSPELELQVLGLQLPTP
UniProt P31994, 46-217: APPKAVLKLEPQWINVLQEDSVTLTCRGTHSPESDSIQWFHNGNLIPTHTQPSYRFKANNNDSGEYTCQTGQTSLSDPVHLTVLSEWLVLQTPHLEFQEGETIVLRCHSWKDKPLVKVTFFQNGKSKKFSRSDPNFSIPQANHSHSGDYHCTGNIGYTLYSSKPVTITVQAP

Legend:
Assay in all cases: SPR (ProteOn XPR36), IgG amine-coupled, receptor in solution, 25 C
[1] = biological target: mFcγ1 (UniProt P26151)
[2] = biological target: hFcγ3A (human) (UniProt P08637)
[3] = biological target: hFcγ1 (human) (UniProt P12314)
[4] = biological target: hFcγ2B (human) (UniProt P31994)

## hIgG1 kappa (control) (antibody)
[1]
  Kd: 120 nM
[2]
  Kd: 272 nM
[3]
  Kd: 0.2 nM
[4]
  Kd: 3000 nM

## hIgG2 kappa (control) (antibody)
[2]
  Kd: 1930 nM
